Measured values reported in patent US4245096A, “Bis-(2,4-dinitrophenyl)-methyl-pyridinium and quinolinium compounds” (dated 1981).
Read-outs that look alike come from different tables or passages of the source.

How the values were obtained:
[1] = absorption of the pH indicator betaines
[2] = pK value of the pH indicator betaines
[3] = known compounds, background; cited from earlier work

| SMILES | absorption [1] | pK value [2] | absorption [3] | solubility or pK value [3] |
| --- | --- | --- | --- | --- |
| C[n+]1cccc([C-](c2ccc([N+](=O)[O-])cc2[N+](=O)[O-])c2ccc([N+](=O)[O-])cc2[N+](=O)[O-])c1 | 400-900 nm | 10.5 |  |  |
| CCOC(=O)C(c1ccc([N+](=O)[O-])cc1[N+](=O)[O-])c1ccc([N+](=O)[O-])cc1[N+](=O)[O-] |  |  | usable absorption | too low a solubility or too high a pK value |
| C[n+]1ccc([C-](c2ccc([N+](=O)[O-])cc2[N+](=O)[O-])c2ccc([N+](=O)[O-])cc2[N+](=O)[O-])cc1 | 400-810 nm | 6.5 |  |  |
| C[n+]1ccccc1[C-](c1ccc([N+](=O)[O-])cc1[N+](=O)[O-])c1ccc([N+](=O)[O-])cc1[N+](=O)[O-] | 400-800 nm | 9 |  |  |
